Patent publication US11492367B2, “Cyclic dinucleotides as sting agonists” (Janssen Biotech, Inc., priority 2017, dated 2022)
Read-outs that look alike come from different tables or passages of the source.

By UniProt entry, the sequences of proteins in these tests, tags left out.
UniProt Q86WV6, whole entry H232R: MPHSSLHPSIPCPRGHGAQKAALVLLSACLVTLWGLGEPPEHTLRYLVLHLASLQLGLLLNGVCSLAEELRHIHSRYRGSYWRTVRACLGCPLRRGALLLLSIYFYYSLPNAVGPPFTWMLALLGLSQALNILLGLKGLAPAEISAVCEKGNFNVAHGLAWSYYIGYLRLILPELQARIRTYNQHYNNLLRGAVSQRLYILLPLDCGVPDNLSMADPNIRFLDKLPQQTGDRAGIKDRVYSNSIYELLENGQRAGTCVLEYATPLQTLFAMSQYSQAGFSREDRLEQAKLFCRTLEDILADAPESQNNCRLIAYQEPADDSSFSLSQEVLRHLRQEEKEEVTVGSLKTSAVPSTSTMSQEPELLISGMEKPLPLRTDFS

Legend:
[1] = molecular target: human STING (Homo sapiens (Human), UniProt Q86WV6, H232R); test: STING SPA binding assay (human); conditions: read-out: hSTING SPA IC50; displacement of [3H]-2′3′-cGAMP from biotinylated STING (139-379, H232R); tested form: Na salt
[2] = system: THP1-Blue ISG cells; test: Human interferon-β induction assay; conditions: IFN-β in supernatant of THP1-Blue ISG cells
[3] = system: human STING pathway in THP1-ISG cells; test: STING human cell reporter assay
[4] = read-out: human cell reporter EC50, SEAP reporter, 24 h

With COC1C2COP(=O)(O)NC3C(CO[P@@](=O)(S)OC1C(n1cnc4c(=O)[nH]c(N)nc41)O2)OC(n1cnc2c(N)ncnc21)C3F (stereo partly drawn) as the compound, how does the IC50 [1] read?
The IC50 was less than 0.01 µM.

And the “human IFN-β (ranking value)” value ([2]; tested form: Na salt)?
The value was 943.

What about the EC50 ([3]; read-out: human cell reporter EC50, SEAP reporter, 24 h, tested form: Na salt) of the same compound?
Its EC50 is 1.97 µM.

Nc1nc2c(ncn2C2OC3COP(=O)(O)NC4C(COP(=O)(O)OC2C3O)OC(n2cnc3c(N)ncnc32)C4F)c(=O)[nH]1 (stereo not drawn) was tested. Which “human IFN-β (ranking value)” value [2] did it give?
The value was 628.

What about the EC50 [3, 4] of the same compound?
Its EC50 is 3.73 µM.

With Nc1nc2c(ncn2C2OC3CNP(=O)(O)OC4C(COP(=O)(O)OC2C3F)OC(n2cnc3c(N)ncnc32)C4O)c(=O)[nH]1 (stereo not drawn) as the compound, how does the EC50 [3, 4] read?
Its EC50 is 9.5 µM.
